Test results taken from patent US20260345484A1, “Inhalable Epinephrine Formulation” (De Motu Cordis Pty Ltd, priority 2022, published 2026).

Experiment: Particle size distribution / agglomeration on storage
Type: physicochemical
Conditions: storage to 4 weeks; listed as crystalline micronized epinephrine bitartrate

In the case of `CNC[C@H](O)c1ccc(O)c(O)c1` [micronized epinephrine bitartrate, epinephrine bitartrate], the tendency to agglomerate is reported as “would form agglomerates; also recorded: naturally tends to agglomerate”.

Entries after “also recorded” stand apart in the source; their conditions may differ.
